Reference: US20220169643A1, “ESTROGEN RECEPTOR DEGRADING PROTACS” (AstraZeneca AB, priority 2019, published 2022)

Chains of the proteins cited; added tags and fusions are not shown. Residues count along the entry.
UniProt P03372, 307-554 limits assumed: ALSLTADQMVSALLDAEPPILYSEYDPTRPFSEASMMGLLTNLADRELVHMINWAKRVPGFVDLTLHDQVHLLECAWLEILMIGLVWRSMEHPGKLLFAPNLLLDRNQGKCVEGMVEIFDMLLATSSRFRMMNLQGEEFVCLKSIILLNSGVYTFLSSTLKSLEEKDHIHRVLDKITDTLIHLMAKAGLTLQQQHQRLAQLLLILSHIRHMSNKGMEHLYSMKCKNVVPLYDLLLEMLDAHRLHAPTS

Target: Estrogen Receptor Alpha Ligand binding domain (ER alpha-LBD (GST)) (Homo sapiens, UniProt P03372)
Test: ERα Binding Assay (LanthaScreen TR-FRET competition)
Description: The ability of compounds to bind to isolated Estrogen Receptor Alpha Ligand binding domain (ER alpha-LBD (GST)) was assessed in competition assays using a LanthaScreen™ Time-Resolved Fluorescence Resonance Energy Transfer (TR-FRET) detection end-point. For the LanthaScreen TR-FRET endpoint, a suitable fluorophore (Fluormone ES2, ThermoFisher, Product code P2645) and recombinant human Estrogen Receptor alpha ligand binding domain, residues 307-554 (expressed and purified in-house) were used to measure compound binding. The assay principle is that ER alpha-LBD (GST) is added to a fluorescent ligand to form a receptor/fluorophore complex. A terbium-labelled anti-GST antibody (Product code PV3551) is used to indirectly label the receptor by binding to its GST tag, and competitive binding is detected by a test compound's ability to displace the fluorescent ligand, resulting in a loss of TR-FRET signal between the Th-anti-GST antibody and the tracer. The assay was performed as follows with all reagent additions carried out using the Beckman Coulter BioRAPTR FRD microfluidic workstation: • 1. Acoustic dispense 120 nL of the test compound into a black low volume 384 well assay plates. • 2. Prepare 1×ER alpha-LBD/Tb-anti-GST Ab in ES2 screening buffer and incubate for 15 minutes. • 3. Dispense 6 μL of the 1×[…]/Th-anti-GST Ab reagent into each well of the assay plate followed by 6 μL of Fluorophore reagent into each well of the assay plate • 4. Cover the assay plate to protect the reagents from light and evaporation, and incubate at room temperature for 4 hours. • 5. Excite at 337 nm and measure the fluorescent emission signal of each well at 490 nm and 520 nm using the BMG PheraSTAR.
Compounds were dosed directly from a compound source microplate containing serially diluted compound (4 wells containing 10 mM, […] and 10 nM final compound respectively) to an assay microplate using the Labcyte Echo 550. The Echo 550 is a liquid handler that uses acoustic technology to perform direct microplate-to-microplate transfers of DMSO compound solutions and the system can be programmed to transfer multiple small nL volumes of compound from the different source plate wells to give the desired serial dilution of compound in the assay which is then back-filled to normalise the DMSO concentration across the dilution range.
In total 120 nL of compound plus DMSO were added to each well and compounds were tested in a 12-point concentration response format over a final compound concentration range of 10, 2.917, 1.042, 0.2083, 0.1, 0.0292, 0.0104, 0.002083, 0.001, 0.0002917, 0.0001042, and 0.00001 μM respectively. TR-FRET dose response data obtained with each compound was exported into a suitable software package (such as Origin or Genedata) to perform curve fitting analysis. Competitive ER alpha binding was expressed as an IC50 value. This was determined by calculation of the concentration of compound that was required to give a 50% reduction in tracer compound binding to ER alpha-LBD.

[1] = read-out: ER binding IC50, competitive displacement of Fluormone ES2 tracer from recombinant human ER alpha-LBD (residues 307-554), 4 hours at room temperature

Compound	IC50 [1] [nM]	IC50 (read-out: ER binding IC50, competitive displacement of Fluormone ES2 tracer from recombinant human ER alpha-LBD (residues 307-554), 4 hours at room temperature, tested form: formate) [nM]
C[C@@H]1Cc2c([nH]c3ccccc23)[C@@H](c2cnc(N3CCC(CCCN4C[C@H]5C[C@@H]4CN5c4ccc5c(c4)CN(C4CCC(=O)NC4=O)C5=O)CC3)nc2)N1CC(C)(C)F (stereo partly shown)	3.9	
C[C@@H]1Cc2c([nH]c3ccccc23)[C@@H](c2cnc(N3CCC4(CC3)CN(CC3CCN(c5ccc6c(c5)CN(C5CCC(=O)NC5=O)C6=O)CC3)C4)nc2)N1CC(C)(C)F (stereo partly shown)		12.3
C[C@@H]1Cc2c([nH]c3ccccc23)[C@@H](c2cnc(N3CCC4(CC3)CC4CN3CCN(c4ccc5c(c4)CN(C4CCC(=O)NC4=O)C5=O)CC3)nc2)N1CC(C)(C)F (stereo partly shown)	5.1	
C[C@@H]1Cc2c([nH]c3ccccc23)[C@@H](c2cnc(N3CCC(CN4CC5(C4)CN(c4ccc6c(c4)CN(C4CCC(=O)NC4=O)C6=O)C5)CC3)nc2)N1CC(C)(C)F (stereo partly shown)	5.4	
CC(C1CCN(c2ncc([C@@H]3c4[nH]c5ccccc5c4C[C@@H](C)N3CC(C)(C)F)cn2)CC1)N1CCN(c2ccc3c(c2)CN(C2CCC(=O)NC2=O)C3=O)CC1 (stereo partly shown)	3.2	
C[C@@H]1Cc2c([nH]c3ccccc23)[C@@H](c2cnc(N3CCC4(CC3)CC(CN3CCN(c5ccc6c(c5)CN(C5CCC(=O)NC5=O)C6=O)CC3)C4)nc2)N1CC(C)(C)F (stereo partly shown)	2.3	
C[C@@H]1Cc2c([nH]c3ccccc23)[C@@H](c2cnc(N3CCC(CCN(C)C4CN(c5ccc6c(c5)CN(C5CCC(=O)NC5=O)C6=O)C4)CC3)nc2)N1CC(C)(C)F (stereo partly shown)	3.3	

Where two headings read alike, the source gives them in different places.
